Measured values from publication PMC8881610 (Nature Communications, 2022).

Protein sequences, listed by entry. Tags and fused reporters are not part of them. Residues count along the entry.
UniProt P43220, 24-463: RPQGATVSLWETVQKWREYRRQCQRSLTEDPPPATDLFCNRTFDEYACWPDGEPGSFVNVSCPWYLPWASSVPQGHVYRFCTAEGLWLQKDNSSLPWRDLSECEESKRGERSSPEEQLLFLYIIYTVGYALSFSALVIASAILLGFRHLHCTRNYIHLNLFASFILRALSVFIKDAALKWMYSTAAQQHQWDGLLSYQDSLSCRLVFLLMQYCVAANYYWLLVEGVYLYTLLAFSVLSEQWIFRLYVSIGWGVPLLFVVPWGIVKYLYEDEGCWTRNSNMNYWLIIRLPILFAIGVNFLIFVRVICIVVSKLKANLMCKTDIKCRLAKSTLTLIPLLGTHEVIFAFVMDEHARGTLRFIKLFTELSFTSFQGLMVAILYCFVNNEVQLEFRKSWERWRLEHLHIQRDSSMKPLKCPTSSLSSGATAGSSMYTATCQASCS

Target: GLP-1R (Homo sapiens, UniProt P43220)
Assay: Whole-cell binding assay, competition with 125I-GLP-1(7-36)NH2
Parameters: Flag; expressed in transfected cells
Details: CHO-K1
Procedure: Human embryonic kidney 293 cells containing SV40 large T-antigen (HEK293T) were cultured in DMEM (Gibco) supplemented with 10% (v/v) fetal bovine serum (FBS, Gibco), 1 mM sodium pyruvate (Gibco) and 100 units/mL penicillin and 100 μg/mL streptomycin at 37 °C in 5% CO2. Chinese hamster ovary (CHO-K1) cells were cultured in F-12 (Gibco) containing 10% FBS, 100 units/mL penicillin and 100 μg/mL streptomycin at 37 °C in 5% CO2. For cAMP and receptor expression assays, HEK293T cells were seeded into 6-well cell culture plates at a density of 7 × 10^5 cells per well. After overnight incubation, cells were transfected with GIPR, GLP-1R or GCGR construct using Lipofectamine 2000 or Lipofectamine 3000 transfection reagent (Invitrogen). For whole-cell binding assay, CHO-K1 cells were seeded into 96-well fibronectin-treated cell culture plates at a density of 3 × 10^4 cells per well. After overnight incubation, cells were transfected with GIPR, GLP-1R or GCGR construct using Lipofectamine 2000 transfection reagent (Invitrogen). Following 24 h culturing, the transfected cells were ready for use.
For GLP-1R and GCGR, CHO-K1 cells (30,000 cells/well) were seeded into Isoplate-96 plates and incubated for 24 h at 37 °C in 5% CO2. The WT or mutant constructs were transiently transfected using Lipofectamine 2000 transfection reagent as previous described. They were then washed twice using F-12 with 0.1% BSA or 0.1% casein, 33 mM HEPES, and incubated for 2 h at 37 °C. […] Cells were washed three times with ice-cold PBS and lysed in PBS with 1% Triton X-100, 20 mM Tris-HCl. After addition of scintillation cocktail (PerkinElmer), radioactivity (CPM) was counted on a MicroBeta^2 microplate counter (PerkinElmer). Data were normalized to the WT response and analyzed using three-parameter logistic equation.

Q: With `CC[C@H](C)[C@H](NC(=O)[C@H](CC(C)C)NC(=O)[C@H](Cc1c[nH]c2ccccc12)NC(=O)[C@H](CCC(N)=O)NC(=O)[C@@H](NC(=O)[C@H](Cc1ccccc1)NC(=O)[C@H](C)NC(=O)[C@H](CCCCNC(=O)COCCOCCNC(=O)COCCOCCNC(=O)CC[C@H](NC(=O)CCCCCCCCCCCCCCCCCCC(=O)O)C(=O)O)NC(=O)[C@H](CCC(N)=O)NC(=O)[C@H](C)NC(=O)[C@@H](NC(=O)[C@H](CCCCN)NC(=O)[C@H](CC(=O)O)NC(=O)[C@H](CC(C)C)NC(=O)C(C)(C)NC(=O)[C@@H](NC(=O)[C@H](CO)NC(=O)[C@H](Cc1ccc(O)cc1)NC(=O)[C@H](CC(=O)O)NC(=O)[C@H](CO)NC(=O)[C@@H](NC(=O)[C@H](Cc1ccccc1)NC(=O)[C@@H](NC(=O)CNC(=O)[C@H](CCC(=O)O)NC(=O)C(C)(C)NC(=O)[C@@H](N)Cc1ccc(O)cc1)[C@@H](C)O)[C@@H](C)O)[C@@H](C)CC)[C@@H](C)CC)C(C)C)C(=O)N[C@@H](C)C(=O)NCC(=O)NCC(=O)N1CCC[C@H]1C(=O)N[C@@H](CO)C(=O)N[C@@H](CO)C(=O)NCC(=O)N[C@@H](C)C(=O)N1CCC[C@H]1C(=O)N1CCC[C@H]1C(=O)N1CCC[C@H]1C(=O)N[C@@H](CO)C(N)=O` [Tirzepatide] as the compound, how does the “binding Span” value (GLP-1R WT, 0.1% casein) read?
A: 91.41 ± 8.36

Q: What about the “binding Span” value (GLP-1R WT) of the same compound?
A: 77.63 ± 5.70 % WT

Q: What about the “binding Span” value (GLP-1R, effect of tirzepatide acylation) of the same compound?
A: 82.07 ± 6.37 % WT or Tirzepatide
